Experimental data published in patent publication US7718681B2, “5-(1,3-Diaryl-1H-pyrazol-4-ylmethylene)-thiazolidine,2,4-dione derivatives useful as anticancer agent” (Korea Research Institute of Chemical Technology, priority 2005, dated 2010).

By UniProt entry, the sequences of proteins in these tests, tags left out. Residues count along the entry.
UniProt P30305, 392-580 limits assumed: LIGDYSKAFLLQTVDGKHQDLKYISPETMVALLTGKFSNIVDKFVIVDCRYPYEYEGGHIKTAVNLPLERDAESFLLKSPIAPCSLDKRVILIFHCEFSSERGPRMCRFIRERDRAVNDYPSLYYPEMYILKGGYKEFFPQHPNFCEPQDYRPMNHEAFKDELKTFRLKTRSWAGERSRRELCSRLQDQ

Target: CDC25B (Homo sapiens, UniProt P30305)
Experiment: CDC25B enzyme assay
Settings: catalytic domain of CDC25B (aa 378-566) GST fusion, 20 μm FDP, 1 hour at room temperature, fluorescence
Description: Catalytic domain of CDC25B (aa 378-566) was expressed and produced in E. coli into a GST fusion protein, which was used as zymogen. Enzyme assay was carried out on a 96-well plate, with the final reaction volume per well adjusted to 200 μL. 170 μL of a buffer solution (30 mM Tris buffer, pH 8.5, 75 mM NaCl, 0.67 mM EDTA, 1 mM DTT), 20 μL (0.2 μg) of CDC25B enzyme and 10 μL of the test compound dissolved in DMSO were added, so that the final concentration became 1 μg/mL CDC25B and 20 μm FDP. Measurement was made after culturing at room temperature for 1 hour. FDP and DTT were added to the buffer solution just before assay, so that a fresh status could be maintained. After 1 hour of culturing, fluorescence resultant from the enzymatic reaction was measured at 485 nm (excitation) and 538 nm (emission).
The screened compound was treated to a final concentration of 1, 2, 5 and 10 μm to obtain the % inhibition value. If the inhibitory effect was low (less than 50% at […]), the concentration of the compound was increased to 20 μm and the % inhibition value and the IC50 value were obtained.

Point of comparison: `C=CCN1C(=O)S/C(=C\c2cn(-c3ccccc3)nc2-c2ccc(OCC)c(I)c2)C1=O`, IC50 4160 nM. Against it:
- CCCOc1c(C(C)(C)C)cc(-c2nn(-c3ccccc3)cc2/C=C2\SC(=O)N(CC)C2=O)cc1C(C)(C)C — within 1.5-fold, 4200 nM
- CCCOc1c(Br)cc(-c2nn(-c3ccccc3)cc2/C=C2\SC(=O)NC2=O)cc1Br [Compound 163] — 7.2-fold lower, 580 nM
- O=C1NC(=O)/C(=C/c2cn(-c3ccccc3)nc2-c2cccc([N+](=O)[O-])c2)S1 — 4-fold lower, 1030 nM
